Values of other authors as cited in patent US4883666A, “Controlled drug delivery system for treatment of neural disorders” (Massachusetts Institute of Technology, priority 1987, dated 1989).

Test system: multiple sclerosis
Conditions: administered directly into the spinal column; cited from earlier work

B1: beta interferon: beta interferon to reduce the frequency and severity of multiple sclerosis attacks (protein, UniProt P01574 22-187, looked up)
Interferon beta: MSYNLLGFLQRSSNFQCQKLLWQLNGRLEYCLKDRMNFDIPEEIKQLQQFQKEDAALTIYEMLQNIFAIFRQDSSSTGWNETIVENLLANVYHQINHLKTVLEEKLEKEDFTRGKLMSSLHLKRYYGRILHYLKAKEYSHCAWTIVRVEILRNFYFINRLTGYLRN
frequency and severity of multiple sclerosis attacks: reduce the frequency and severity of multiple sclerosis attacks
